Measured values reported in PMC3742231 (International Journal of Molecular Sciences, 2013).
Read-outs that look alike come from different tables or passages of the source.

Conditions: 0-120 h, 10 mg racemic warfarin

SMILES | AUCt, mean (CV%) (OSP (+)) | AUCt, mean (CV%) (OSP (−))
CC(=O)C[C@H](c1ccccc1)c1c(O)c2ccccc2oc1=O [R-Warfarin] | 27.8 (19.6) μg h/mL | 26.2 (18.7) μg h/mL
CC(=O)C[C@@H](c1ccccc1)c1c(O)c2ccccc2oc1=O [S-Warfarin, S-warfarin] | 18.0 (28.3) μg h/mL | 17.2 (27.4) μg h/mL
